Target: D(2) dopamine receptor (Mus musculus, UniProt P61168)

Protein sequences, listed by entry. Tags and fused reporters are not part of them.
UniProt P61168, whole entry: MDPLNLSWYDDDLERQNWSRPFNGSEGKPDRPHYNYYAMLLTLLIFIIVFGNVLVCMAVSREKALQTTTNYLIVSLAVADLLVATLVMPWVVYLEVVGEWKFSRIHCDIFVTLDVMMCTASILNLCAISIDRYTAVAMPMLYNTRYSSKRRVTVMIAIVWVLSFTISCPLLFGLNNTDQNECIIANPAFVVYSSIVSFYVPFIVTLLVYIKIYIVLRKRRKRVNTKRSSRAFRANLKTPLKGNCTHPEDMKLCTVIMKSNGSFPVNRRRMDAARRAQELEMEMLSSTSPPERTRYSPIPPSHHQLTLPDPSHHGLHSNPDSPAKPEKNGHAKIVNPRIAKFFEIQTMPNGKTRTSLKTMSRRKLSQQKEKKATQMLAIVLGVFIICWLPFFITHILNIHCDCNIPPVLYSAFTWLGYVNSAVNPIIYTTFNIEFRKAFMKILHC

Ki: 0.21 nM
SMILES: CC(C)(C)[C@]1(O)CCN2C[C@H]3c4ccccc4CCc4cccc(c43)[C@@H]2C1

Reference: BindingDB's records for PubMed 2017157 (Medical Research Service, 1991)
